Rango-impB inh: inhibitors of Rango-importin beta complex formation; hit rate 0.031% among 340,000; Q14974; Potency, µM (top dose mostly 92.2 µM), for the others: at the highest dose inhibition of complex formation; Rango CFP/YFP FRET sensor + importin beta, 45 min;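 note: potency is the fitted concentration of half-maximal effect; 0% = DMSO wells and 100% = buffer wells lacking importin beta; nearly all actives have a fitted effect of over 15% in size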
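Inhibition scored from the CFP 486 nm/YFP 530 nm FRET ratio 45 min after adding 0.125 microM importin beta to 50 nM Rango biosensor preincubated 5 min with compound (room temperature, PBS with DTT, Tween-20, BSA). No-importin wells as positive control.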
CCT chaperon mod: changes cytosolic chaperonin activity; purified chaperonin ATPase assay, HTRF ADP detection, 30 min; activity change, % (no concentration beside the values), hits read low; hit rate 0.3% among 360,000; AID 651819; in the data active = activity change below about -30%; note: % is set by controls: 0 for no effect and ±100 for the full control effect
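TRiC (40 or 20 nM final, by batch activity) in 30 mM Tris pH 7.4, 100 mM KCl, 5 mM MgCl2, 1 mM DTT was treated with compound at 76 uM single dose, then 10 uM ATP, 30 min at 37 °C. ADP was read by HTRF Transcreener.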
KCNH2 3.1 block: KCNH2 3.1 (human) potassium channel inhibition. U2OS KCNH2 3.1, thallium flux FluxOr; active compounds read low. activity change, % (tested at about 1.8 µM). hit rate 0.95% among 340,000. AID 720553;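 active = maximum activity change below -70%; inconclusive = maximum activity change from -70% to -50%; inactive = maximum activity change above -50%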;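 note: thallium influx rate constant from kinetic fluorescence after stimulation buffer; % is set by controls: 0 for no effect and ±100 for the full control effect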
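We transduce U2OS cells with the mutant 3.1 virus, culture them overnight, load FluxOr with Red40 quencher for 45 min, then add stimulation buffer and read kinetically for 2 min to derive a normalized rate constant.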
MmCpn inh: blocks the Methanococcus maripaludis chaperonin Mm-Cpn; purified Mm-Cpn ATPase, ADP Transcreener TR-FRET; Potency, µM (series often up to 76.9 µM), inactives show at the highest dose activity, negative = inhibition, actives largely listed as inhibitors; hit rate 0.031% among 330,000; active = well fitted inhibition curve with a large enough effect; inconclusive = small, poorly fitted or top-dose-only effect; note: potency is the fitted concentration of half-maximal effect; % is set by controls: 0 for no effect and ±100 for the full control effect; nearly all actives have a fitted effect of over 80% in size
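ATPase turnover read by TR-FRET ADP competition (Eu cryptate antibody/ADP-d2, 665/590 nm): 10uM ATP final, 25nM Mm-CPN final, 30 min 37degC after 10-min compound preincubation, pH 7.4 Tris/KCl/MgCl2/DTT buffer.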
Rango dissoc inh: prevents RanGTP from dissociating the Rango-importin beta complex; O95149+P62826; Biochemical FRET Rango-importin beta, RanGTP-induced dissociation; Potency, µM (highest dose often 46.1 µM), for the others: top-dose activity change, negative = inhibition; hit rate 0.071% among 340,000; note: potency is the fitted concentration of half-maximal effect; % of control where 0% means no effect; nearly all actives have a fitted effect of over 45% in size
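Rango FRET biosensor (snurportin-1 IBB flanked by N-terminal EYFP and C-terminal CFP10) at 0.1 uM, with 0.25 uM importin beta in PBS, 1mM DTT, 0.02% Tween-20, 0.1% BSA. 0.6 uM Ran, 2mM GTP and 0.2 uM RCC1 were then added for 45 min at room temperature. Inhibition read as loss of FRET rise.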
hERG WT inh: inhibitors of human wildtype KCNH2 potassium channel | AID 720551 | activity change, % at 1.84 µM | hit rate 0.37% among 340,000 | U2OS, BacMam KCNH2, thallium flux FluxOr; active compounds read low | Q12809;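 active = maximum activity change below -70%; inconclusive = maximum activity change between -70% and -50%; inactive = maximum activity change above -50%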; note: % is set by controls: 0 for no effect and ±100 for the full control effect
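U2OS cells transduced with wild-type KCNH2 virus are loaded with FluxOr dye for 45 min, and thallium flux is measured in kinetic reads before and after stimulation buffer. Rate constants are normalized to DMSO controls.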
* = called active by the depositor; ? = inconclusive; nt = not tested or not shown. Sampled rows, rich in hits. Any-hit rate of the full collection: about 1.4%. Unless noted, calls come from the whole dose curve.

Keys – A = Rango-impB inh; B = CCT chaperon mod; C = KCNH2 3.1 block; D = MmCpn inh; E = Rango dissoc inh; F = hERG WT inh
CCOP(=O)(OCC)/C(C#N)=C/c1ccc(-c2ccc(F)cc2F)o1
  A: ?; B: -2; C: 4; D: 1%; E: ?; F: 3

CC(=O)Nc1ccc(N(C(=O)Cn2nnc3ccccc32)C(C(=O)NC2CCCC2)c2ccc(O)c(O)c2)cc1 (stereo not drawn)
  A: ?; B: 1; C: -5; D: 1%; E: -12%; F: -5

O=C1NC(=S)SC1=Cc1ccc(N(CCCl)CCCl)cc1
  A: ?; B: 2; C: -21; D: nt; E: ?; F: -13

N#CC(C#N)=Cc1ccc(N2CCCC2)cc1
  A: ?; B: -46*; C: -10; D: -5%; E: ?; F: -3

Fc1ccccc1CNC1CN2CCC1CC2 (stereo not drawn)
  A: 1%; B: -1; C: 6; D: 1%; E: 12%; F: 1

Ic1ccccc1CN[C@@H]1C2CCN(CC2)[C@@H]1C(c1ccccc1)c1ccccc1
  A: -1%; B: 1; C: -75*; D: 3%; E: -19%; F: 5

CCCCCn1c(=O)c(C(=O)Nc2ccncc2)c(O)c2ccccc21
  A: nt; B: nt; C: nt; D: -3%; E: nt; F: nt

CCCCCn1c(=O)c(C(=O)NCc2ccncc2)c(O)c2ccccc21
  A: -2%; B: -3; C: -13; D: 0%; E: 2%; F: -75*

O=C1CN=C(c2ccccc2)c2ccccc2N1
  A: -3%; B: -53*; C: 1; D: -1%; E: 13%; F: -3

O=C1CN=C(c2ccccc2)c2cc([N+](=O)[O-])ccc2N1
  A: 0%; B: -3; C: 4; D: -3%; E: 4%; F: 6

COC(=O)C1=C(C(=O)OC)C2OC1c1cc3ccccc3cc12
  A: 0%; B: 1; C: -15; D: nt; E: 4%; F: 6

O=C(O)c1cccc2c1NC(c1cccc([N+](=O)[O-])c1)C1CC(Sc3ccccc3[N+](=O)[O-])C(Cl)C21 (stereo not drawn)
  A: 4%; B: -46*; C: 8; D: 2%; E: -1%; F: -3

COc1cccc(-n2c(CNC(=O)OC(C)(C)C)n[nH]c2=S)c1
  A: ?; B: -2; C: -2; D: 2%; E: 0%; F: 8

CCOC(=O)C1CCN(Cc2ccc(Cl)nc2)CC1
  A: 0%; B: 0; C: -3; D: 3%; E: 6%; F: -74*

CCOc1ccc(CN2CCN(C(=O)Cc3ccccc3)CC2)cc1
  A: 1%; B: -1; C: 0; D: -1%; E: -7%; F: -7

CCCCCCn1c(O)c(C=NC2CCN(Cc3ccccc3)CC2)c(=O)[nH]c1=O
  A: 2%; B: 0; C: -95*; D: -1%; E: -1%; F: -1

S=C(NCCc1ccccc1)N1Cc2ccccc2-n2nncc2C1
  A: nt; B: -2; C: 3; D: nt; E: nt; F: 4

Cc1ccc(OP(=O)(NCc2ccccc2)Oc2ccc(C)cc2)cc1
  A: 0%; B: -2; C: -87*; D: 0%; E: 11%; F: -12

CCOC(=O)CC(SP1(=S)OCC2(CC=CCC2)CO1)C(=O)OCC (stereo not drawn)
  A: -1%; B: -3; C: 19; D: nt; E: -4%; F: 3

Cc1c(C)c2ccc(OCC(=O)N3C[C@H]4C[C@@H](C3)c3cccc(=O)n3C4)c(C)c2oc1=O
  A: 0%; B: -2; C: -14; D: 1%; E: 0%; F: 1

Cc1cc(OCC(=O)N2C[C@H]3C[C@@H](C2)c2cccc(=O)n2C3)c2c(C)c(C)c(=O)oc2c1
  A: -1%; B: -59*; C: 1; D: -5%; E: -3%; F: -8

C[C@H](CO)N1C[C@H](C)[C@@H](CN(C)C(=O)Oc2ccc3ccccc3c2)OCc2cn(nn2)CCCC1=O
  A: nt; B: 1; C: 6; D: nt; E: nt; F: -29

N#Cc1ccc(N2CCNCC2)c(F)c1
  A: 4%; B: -2; C: -76*; D: -1%; E: -2%; F: ?

Cn1cc(C=C2C(=O)NC(=O)NC2=O)c2ccccc21
  A: ?; B: 0; C: -11; D: 1%; E: -9%; F: -14

O=C1NC(=O)C(=Cc2csc3ccccc23)C(=O)N1
  A: 0%; B: -2; C: -180*; D: -18%; E: -8%; F: -209*

CN1CCN(CC(=O)Nc2ccc([N+](=O)[O-])cc2C(=O)c2ccccc2)CC1
  A: -1%; B: -3; C: -110*; D: -1%; E: -8%; F: -103*

Cc1ccc(CN2CCN(CC(=O)N3CCC4(CC3)OCCO4)C2=O)cc1
  A: -3%; B: -2; C: -2; D: 0%; E: -10%; F: 2

Cc1ccc(CCN2CC(C(=O)N3CCC4(CC3)OCCO4)CC2=O)cc1 (stereo not drawn)
  A: 0%; B: -64*; C: 0; D: 2%; E: -4%; F: -13

N#Cc1ccc(NC(=S)N2Cc3ccccc3-n3nncc3C2)cc1
  A: nt; B: -2; C: -11; D: nt; E: nt; F: -7

O=c1[nH]c(=O)n(Cc2ccc(F)cc2)c(O)c1C=NCCCn1ccnc1
  A: -3%; B: -2; C: 3; D: 0%; E: 18%; F: 32

Rewritten comma-delimited: part of the list above
SMILES,Rango-impB inh,CCT chaperon mod,KCNH2 3.1 block,MmCpn inh,Rango dissoc inh,hERG WT inh
Cc1ccc(CCN2CC(C(=O)N3CCC4(CC3)OCCO4)CC2=O)cc1 (stereo not drawn),0%,-64*,0,2%,-4%,-13
N#Cc1ccc(NC(=S)N2Cc3ccccc3-n3nncc3C2)cc1,nt,-2,-11,nt,nt,-7

Continued.
Keys – A = Rango-impB inh; B = CCT chaperon mod; C = KCNH2 3.1 block; D = MmCpn inh; E = Rango dissoc inh; F = hERG WT inh
O=c1[nH]c(=S)n(Cc2ccc(F)cc2)c(O)c1C=NCCCn1ccnc1
  A: 0%; B: 0; C: -84*; D: 3%; E: 0%; F: -37

Cc1cc(Cl)ccc1C(=O)C1CCCN(C2CCSCC2)C1 (stereo not drawn)
  A: 0%; B: 1; C: -87*; D: -2%; E: -4%; F: -34

Cc1ccsc1C(=O)C1CCCN(Cc2ccccc2O)C1 (stereo not drawn)
  A: 4%; B: -1; C: -1; D: -1%; E: 6%; F: 28

Cc1ccsc1C(=O)C1CCCN(Cc2cccn2-c2ccccn2)C1 (stereo not drawn)
  A: -7%; B: -3; C: -75*; D: 3%; E: 34%; F: -26

S=P(NCCSCc1ccccc1)(N1CC1)N1CC1
  A: 2%; B: -1; C: -10; D: nt; E: 6%; F: -10

CCCCn1c(NS(=O)(=O)c2ccccc2)c(C(=O)OCC)c2nc3ccccc3nc21
  A: ?; B: -2; C: 4; D: 45µM*; E: ?; F: 8

CCCCn1c(NC(=O)c2ccc(Br)o2)c(C(=O)OCC)c2nc3ccccc3nc21
  A: ?; B: -1; C: -1; D: -17%; E: ?; F: -7

CN(C)CCNC(=O)C(=O)NCC1OCCCN1S(=O)(=O)c1cccs1 (stereo not drawn)
  A: ?; B: -2; C: -22; D: 1%; E: -1%; F: -1

CCOC(=O)[C@]12Cc3ccccc3[C@H]1N(CCC(=O)OC)C(=O)c1cc(OC)ccc12
  A: nt; B: 0; C: nt; D: nt; E: nt; F: nt

C#CCOCCOCCOCCNc1nc(N2CCN(C(=O)CCCCCCCCCCNC(=O)[C@H]([C@@H](C)CC)n3cc(CCCCN=C(N)N)nn3)CC2)nc(N2CCN(C(=O)CCCCCCCCCCNC(=O)[C@H](CO)n3cc(CCCCCN)nn3)CC2)n1
  A: 73µM*; B: -1; C: -1; D: 2%; E: ?; F: 6

C=CCc1cc(C)ccc1OCCCC(C(=O)OCC)C(=O)OCC
  A: 1%; B: -1; C: -4; D: 0%; E: -3%; F: 0

CC(C)[C@H]1CC2C3CC=C4C[C@@H](O)CC[C@]4(C)C3CC[C@]2(C)[C@H]1O (stereo partly drawn)
  A: -3%; B: -3; C: 20; D: 0%; E: 7%; F: 5

C[C@]12CC[C@H](O)CC1=CCC1C2CC[C@@]2(C)C1CC[C@@H]2OCc1ccccc1 (stereo partly drawn)
  A: 1%; B: -32*; C: 0; D: -7%; E: 15%; F: -5

Individual results from above:
CCOC(=O)[C@]12Cc3ccccc3[C@H]1N(CCC(=O)OC)C(=O)c1cc(OC)ccc12 in CCT chaperon mod: 0
CC(C)[C@H]1CC2C3CC=C4C[C@@H](O)CC[C@]4(C)C3CC[C@]2(C)[C@H]1O (stereo partly drawn) in KCNH2 3.1 block: 20

Screening data (PubChem BioAssay)
